{"source": "paper PMC8826081", "about": "“Three-Carbon Linked Dihydroartemisinin-Isatin Hybrids: Design, Synthesis and Their Antiproliferative Anticancer Activity” (Frontiers in Pharmacology, 2022)", "key": {"[1]": {"system": "A549/DOX (doxorubicin-resistant A549 cells)", "assay": "MTT antiproliferative activity against doxorubicin-resistant A549", "format": "cell-based", "excerpt": "(§1) 3-(4,5-dimethylthiazol-2-yl)-2,5-diphenyltetrazolium bromide (MTT) assay was used to determined the antiproliferative activity of dihydroartemisinin-isatin hybrids 5a-e and 6a-j with three-carbon linker against A549, multidrug-resistant A549/DOX and A549/DDP lung cancer cell lines as well as cytotoxicity towards normal lung epithelial cell line (BEAS-2B). The inhibitory effects were expressed in terms of half maximal inhibitory concentration (IC50) values.\n(§2) A549, A549/DOX, and A549/DDP lung cancer cells (2×10^3) were plated in each well of a 96-well plate and were allowed to adhere and spread for 24 h. The […] were added to a final concentration of 100 µM, and the cells were cultured for 24 h at 37 °C. 3-(4,5-dimethyl-2-thiazolyl)-2,5-diphenyltetrazolium bromide (MTT) solution (10 µL) was added to each well, and the cultures were incubated for an additional 4 h. A further 100 µL of […] was added and incubation continued overnight. The absorbance at 540 nm was determined in each well with a 96-well plate reader. The growth of the treated cells was compared with that of untreated cells."}, "[2]": {"system": "A549/DDP (cisplatin-resistant A549 cells)", "assay": "MTT antiproliferative activity against cisplatin-resistant A549", "format": "cell-based", "excerpt": "as §1, §2"}, "[3]": {"system": "BEAS-2B normal lung epithelial cell line", "assay": "MTT cytotoxicity towards normal lung epithelial cells", "procedure": "as §1\nThe compounds were dissolved in DMSO with concentrations from 1024 to 1 μg/mL. The NIH/3T3 cells were maintained in culture medium at 37 °C under 5% CO2 atmosphere. Cells were seeded in 96-well plates (1×10^4 cell per well) and allowed to recover for 24 h. After 72 h of exposure, cells were harvested and cell viability was assessed by MTT assay. The CC50 values were calculated by Bliss analysis."}}, "data": [{"molecule": "COc1cccc2c1C(=O)c1c(O)c3c(c(O)c1C2=O)C[C@@](O)(C(=O)CO)C[C@@H]3O[C@H]1C[C@H](N)[C@H](O)[C@H](C)O1", "note": "[doxorubicin, reference compound]", "values": [{"measurement": "RI1 (Resistance index: IC50(A549/DOX)/IC50(A549))", "setting": "[1]", "result": 13.38}, {"measurement": "RI2 (Resistance index: IC50(A549/DDP)/IC50(A549))", "setting": "[2]", "result": 3.72}, {"measurement": "SI (Selectivity index: IC50(BEAS-2B)/IC50(A549))", "setting": "[3]", "result": 23.1}]}]}
